{
  "source": "patent US20030224978A1",
  "about": "“Compounds and methods for modulating apoptosis” (McGill University, priority 1996, published 2003)",
  "key": {"HUVEC": {"system": "HUVEC", "format": "cell-based, human", "conditions": "3 h", "experimental": "(§1) N-Ac-CHAVC-NH2 (SEQ ID NO:10) and the control peptide N-Ac-CHGVC-NH2 (SEQ ID NO:20) were evaluated for possible cytotoxic effects on human microvascular endothelial (HMVEC; Clonetics), human umbilical vein endothelial (HUVEC; ATCC #CRL-1730), IAFp2 (human fibroblast cell line; Institute Armand-Frapier, Montreal, Quebec), WI-38 (human fibroblast cell line; ATCC #CCL-75), MDA-MB231 (human breast cancer cell line; ATCC #HTB-26), and PC-3 (human prostate cancer cell line; ATCC #CRL-1435) cells utilizing the MTT assay (Plumb et al., Cancer Res. 49:4435-4440, 1989). Neither of the peptides was cytotoxic at concentrations up to and including 100 μM. Similarly, neither of the peptides was capable of inhibiting the proliferation of the above cell lines at concentrations up to 100 μM, as judged by ^3H-thymidine incorporation assays."}, "MDA-MB231": {"system": "MDA-MB231", "format": "cell-based, human", "conditions": "3 h", "experimental": "as §1"}},
  "data": [
    {"smiles": "CC(=O)N[C@H]1CCCCNC(=O)C[C@@H](C(N)=O)NC(=O)[C@H](C(C)C)NC(=O)[C@H](C)NC(=O)[C@H](Cc2c[nH]cn2)NC1=O", "values": [
      {"measurement": "IC50", "setting": "HUVEC", "value": "> 100", "unit": "µM"},
      {"measurement": "IC50", "setting": "MDA-MB231", "value": "> 100", "unit": "µM"}
    ]}
  ]
}
